Values quoted from earlier work, collected in patent US20120225417A1, “Methods, Compositions and Kits for the Evaluation and Preservation of Sperm” (I'Alliance Boviteq Inc., priority 2011, published 2012).

Chains of the proteins cited; added tags and fusions are not shown.
UniProt Q9Y233, whole entry, species assumed: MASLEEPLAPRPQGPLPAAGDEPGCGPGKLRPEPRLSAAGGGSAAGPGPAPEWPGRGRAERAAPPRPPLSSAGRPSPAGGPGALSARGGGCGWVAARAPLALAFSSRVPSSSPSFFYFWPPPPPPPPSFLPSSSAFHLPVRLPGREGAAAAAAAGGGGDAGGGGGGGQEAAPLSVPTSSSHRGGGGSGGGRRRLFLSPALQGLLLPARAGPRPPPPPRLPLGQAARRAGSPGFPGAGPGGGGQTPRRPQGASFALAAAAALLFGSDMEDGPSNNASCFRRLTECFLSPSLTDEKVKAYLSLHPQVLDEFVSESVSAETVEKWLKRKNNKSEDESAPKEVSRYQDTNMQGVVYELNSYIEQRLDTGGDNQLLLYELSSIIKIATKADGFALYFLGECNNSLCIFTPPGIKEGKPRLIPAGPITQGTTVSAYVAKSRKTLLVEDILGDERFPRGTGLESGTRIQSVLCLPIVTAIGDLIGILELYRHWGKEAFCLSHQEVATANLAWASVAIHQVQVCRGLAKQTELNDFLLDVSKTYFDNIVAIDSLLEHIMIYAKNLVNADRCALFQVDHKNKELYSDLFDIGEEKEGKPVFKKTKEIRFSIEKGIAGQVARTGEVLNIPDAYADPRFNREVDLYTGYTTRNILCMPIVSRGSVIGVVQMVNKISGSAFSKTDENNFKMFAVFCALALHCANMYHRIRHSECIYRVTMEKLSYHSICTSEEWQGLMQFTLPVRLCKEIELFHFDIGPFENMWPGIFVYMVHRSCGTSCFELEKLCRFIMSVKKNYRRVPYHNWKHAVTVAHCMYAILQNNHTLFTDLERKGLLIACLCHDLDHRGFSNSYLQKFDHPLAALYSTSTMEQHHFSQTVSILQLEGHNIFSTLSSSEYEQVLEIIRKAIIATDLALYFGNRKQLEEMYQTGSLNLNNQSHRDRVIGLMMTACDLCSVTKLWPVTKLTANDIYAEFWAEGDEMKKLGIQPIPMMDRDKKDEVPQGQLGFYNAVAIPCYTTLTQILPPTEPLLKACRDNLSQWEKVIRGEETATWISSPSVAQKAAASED

Target: PDE10A (Homo sapiens, UniProt Q9Y233)
Details: estimated, reported by Strick et al.; cited from earlier work

**Q.** Which Ki does the source give for `COc1ccc(Cc2nccc3cc(OC)c(OC)cc23)cc1OC` [Papaverine] here?
**A.** 30 nM
